The target of this assay is P2Y purinoceptor 1 (Homo sapiens, UniProt P47900). The assay can be described thus: Activity against human P2Y1-GFP expressed in 1321N1 cells by intracellular calcium increase. Type of assay: functional, cell-based. In outline: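 hP2Y1-GFP (C-terminal tag) stably transfected into 1321N1 cells, which lack endogenous P2Y receptors; selected with 1 mg/mL G418. Cells grown in DMEM with 5% FCS under 10% CO2 at 37 °C on PLL-coated coverslips. Loaded with 2 µM Fura-2/AM for 30 min in NaHBS pH 7.4, then superfused at 37 °C with agonist for 1 min. Read-out is single-cell 340/380 nm fluorescence ratio; mean ± SD from ≥50 cells.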

Sequences of proteins named here, by UniProt entry; tags and fusion partners are left off. A change or cut given only in a name is not applied to a line headed by its entry.
UniProt P47900: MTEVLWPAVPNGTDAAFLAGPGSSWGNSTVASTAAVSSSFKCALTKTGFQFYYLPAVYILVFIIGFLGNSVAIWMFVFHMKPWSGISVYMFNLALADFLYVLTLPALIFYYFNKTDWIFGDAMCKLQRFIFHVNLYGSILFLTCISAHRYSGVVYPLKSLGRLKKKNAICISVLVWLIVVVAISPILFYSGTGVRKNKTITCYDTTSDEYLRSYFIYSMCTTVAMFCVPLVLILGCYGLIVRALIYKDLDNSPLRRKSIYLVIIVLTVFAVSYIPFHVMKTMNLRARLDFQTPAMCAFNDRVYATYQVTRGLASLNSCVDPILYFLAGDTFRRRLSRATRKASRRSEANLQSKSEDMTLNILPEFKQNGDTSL

Here are results for one compound from ChEMBL document CHEMBL1138990, “Diadenosine and diuridine poly(borano)phosphate analogues: synthesis, chemical and enzymatic stability, and activity at P2Y1 and P2Y2 receptors” (J Med Chem, 2006).

The term EC50 denotes the concentration at which the effect is half-maximal.

Turning to `CSc1nc(N)c2ncn([C@@H]3O[C@H](COP(=O)(O)OP(=O)(O)O)[C@@H](O)[C@H]3O)c2n1`, the EC50 is 11 nM.
